PubChem BioAssay AID504734 (The Scripps Research Institute Molecular Screening Center, 2011)
Only a part is listed here, and it is no random draw. Some salts or complexes appear as unconnected parts, following the source record. Calls of active or inactive are those of the source.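 How the source made its calls: active means inhibition above the mean over all tested compounds plus 3 SD (cut at about 21% in these data); inactive means the rest.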

By UniProt entry, the sequences of proteins in these tests, tags left out.
UniProt Q9NR96, whole entry: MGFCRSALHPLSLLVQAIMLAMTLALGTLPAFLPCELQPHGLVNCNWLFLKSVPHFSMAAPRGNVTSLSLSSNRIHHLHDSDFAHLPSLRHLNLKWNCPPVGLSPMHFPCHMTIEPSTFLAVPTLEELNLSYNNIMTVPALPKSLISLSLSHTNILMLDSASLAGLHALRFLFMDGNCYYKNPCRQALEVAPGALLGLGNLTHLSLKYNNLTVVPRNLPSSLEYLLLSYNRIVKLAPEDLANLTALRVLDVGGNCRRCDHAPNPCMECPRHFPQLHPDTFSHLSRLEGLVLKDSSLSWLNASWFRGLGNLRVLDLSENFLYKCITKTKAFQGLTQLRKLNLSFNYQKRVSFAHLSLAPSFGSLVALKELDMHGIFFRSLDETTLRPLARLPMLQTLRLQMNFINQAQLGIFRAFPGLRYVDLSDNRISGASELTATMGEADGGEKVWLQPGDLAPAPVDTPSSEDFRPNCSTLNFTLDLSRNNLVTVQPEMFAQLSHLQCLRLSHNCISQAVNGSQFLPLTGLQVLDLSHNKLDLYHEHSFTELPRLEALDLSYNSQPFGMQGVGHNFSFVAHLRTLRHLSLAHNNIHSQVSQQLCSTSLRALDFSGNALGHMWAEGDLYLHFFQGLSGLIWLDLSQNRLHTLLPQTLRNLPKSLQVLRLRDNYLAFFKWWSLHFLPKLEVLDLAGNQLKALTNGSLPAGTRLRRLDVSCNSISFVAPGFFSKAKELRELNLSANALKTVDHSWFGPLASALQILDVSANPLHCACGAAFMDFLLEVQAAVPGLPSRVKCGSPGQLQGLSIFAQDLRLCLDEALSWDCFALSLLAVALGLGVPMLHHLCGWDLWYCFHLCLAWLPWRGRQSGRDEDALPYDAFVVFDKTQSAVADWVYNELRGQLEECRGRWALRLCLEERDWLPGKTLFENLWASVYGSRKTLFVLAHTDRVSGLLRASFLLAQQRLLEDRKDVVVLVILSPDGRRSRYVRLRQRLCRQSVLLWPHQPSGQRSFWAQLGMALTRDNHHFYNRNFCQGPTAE

These compounds were tested against Toll-like receptor 9 (Homo sapiens) + Myeloid differentiation primary response protein MyD88 (Homo sapiens) (UniProt Q9NR96+Q99836) (assay: disruptors of TLR9 binding to MyD88 – cell-based, CHO, BLA complementation, fluorescence, primary screen (AID 504734;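 further: 0% = DMSO only wells and 100% = clavulanate BLA inhibitor control wells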)). Settings: CHO BLA complementation TLR9-MyD88, CCF4 FRET ratio; at 4.98 µM; stronger effect = higher value.

SMILES | inhibition
CC(C)c1ccc(OP(C)(=O)Nc2ccc(SC(F)(F)F)cc2)cc1 (centres undefined) | inactive: -1.02%
CP(=O)(Nc1ccccc1F)Oc1ccccc1 (centres undefined) | inactive: -6.92%
O=C(OCCN1CCN(CCOCc2ccccc2)CC1)C(O)(c1ccccc1)c1ccccc1 | inactive: -12.2%
O=C(OC1CN2CCC1CC2)c1ccc([N+](=O)[O-])cc1 (centres undefined) | inactive: -2.66%
COc1ccc2c(c1O)-c1c(O)c(OC)cc3c1[C@H](C2)[N+](C)(C)CC3.O=[N+]([O-])c1cc([N+](=O)[O-])c([O-])c([N+](=O)[O-])c1[O-] | inactive: -1.58%
COc1ccc(OP(C)(=O)Nc2ccc(SC(F)(F)F)cc2)cc1 (centres undefined) | inactive: 5.33%
CCOC(=O)c1ccc(NP(C)(=O)Oc2ccc(F)cc2)cc1 (centres undefined) | inactive: -4.04%
CCN(CC)CCCOC(=O)C(O)(c1ccccc1)C1CCCCC1 (centres undefined) | inactive: -5.84%
Cc1c([N+](=O)[O-])cc([N+](=O)[O-])c(Br)c1[N+](=O)[O-] | inactive: -8.25%
O=[N+]([O-])c1cc([N+](=O)[O-])c(OC2CCCCC2O)c([N+](=O)[O-])c1 (centres undefined) | inactive: -0.48%
CCCCCOc1ccc(NP(C)(=O)Oc2ccc(Cl)cc2Cl)cc1 (centres undefined) | inactive: 7.47%
CP(=O)(Nc1ccccc1)Oc1ccc(F)cc1 (centres undefined) | inactive: 1.17%
COc1ccc(OP(C)(=O)Nc2cccc(Br)c2)cc1 (centres undefined) | inactive: 3.01%
COc1ccc(NP(C)(=O)Oc2ccccc2OC)cc1 (centres undefined) | inactive: 1.67%
CN(C)CCOC(=O)C(O)(c1ccccc1)C1CCCCC1 (centres undefined) | inactive: -19.7%
Cc1cc(-c2cccc3ccccc23)c(C)cn1.O=[N+]([O-])c1cc([N+](=O)[O-])c(O)c([N+](=O)[O-])c1 | inactive: 0.86%
O=[N+]([O-])c1cc([N+](=O)[O-])c(NCC2CCS(=O)(=O)C2)c([N+](=O)[O-])c1 (centres undefined) | inactive: -4.84%
O=[N+]([O-])c1ccc(OP2(=O)COCCO2)cc1 (centres undefined) | inactive: 1.69%
Cc1c(C(c2ccc3c(c2)OCO3)c2c(C)n(C)n(-c3ccccc3)c2=O)c(=O)n(-c2ccccc2)n1C.O=[N+]([O-])c1cc([N+](=O)[O-])c(O)c([N+](=O)[O-])c1 | inactive: 2.83%
CP(=O)(Nc1ccc(SC(F)(F)F)cc1)Oc1ccc(F)cc1 (centres undefined) | inactive: -3.46%
CCOP(C)(=S)SCC(=O)NC(C)(CC)C(=O)O (centres undefined) | inactive: 3.13%
CP(=O)(Nc1ccc2c(c1)OCCO2)Oc1ccccc1 (centres undefined) | inactive: -5.82%

SMILES | inhibition
Cc1ccccc1NP(C)(=O)Nc1ccccc1C | inactive: 6.75%
O=[N+]([O-])c1cc([N+](=O)[O-])c(-n2nnc3ccccc32)c([N+](=O)[O-])c1 | inactive: -1.88%
O=[N+]([O-])c1cc([N+](=O)[O-])c(-c2cnn(-c3ccccc3)c2)c([N+](=O)[O-])c1 | inactive: -1.1%
Cc1nc2ccc3ccccc3c2s1.O=[N+]([O-])c1cc([N+](=O)[O-])c(O)c([N+](=O)[O-])c1 | inactive: -2.04%
O=[N+]([O-])c1cc([N+](=O)[O-])c(Nc2nnnn2CCO)c([N+](=O)[O-])c1 | inactive: 1.06%
CC1=C2N=C(C=C3N=C(C(C)=C4[N-][C@@](C)([C@@H]5N=C1[C@](C)(CCC(=O)NC[C@@H](C)OP(=O)([O-])O[C@H]1[C@@H](O)[C@@H](n6cnc7cc(C)c(C)cc76)O[C@@H]1CO)[C@H]5CC(N)=O)[C@@](C)(CC(N)=O)[C@@H]4CCC(N)=O)[C@@](C)(CC(N)=O)[C@@H]3CCC(N)=O)C(C)(C)[C@@H]2CCC(N)=O.[C-]#N.[Co+3] | inactive: -8.98%
CCOC(=O)C(CC)C1=NC(C)(C)Cc2ccccc21.O=[N+]([O-])c1cc([N+](=O)[O-])c(O)c([N+](=O)[O-])c1 (centres undefined) | inactive: -9.34%
COc1ccccc1OP(C)(=O)Nc1c(C)cccc1C (centres undefined) | inactive: -10.2%
CN1CCCCC1COC(=O)C1(O)c2ccccc2CCc2ccccc21 (centres undefined) | inactive: 0.21%
CP(=O)(Nc1ccc(SC(F)(F)F)cc1)Oc1ccccc1 (centres undefined) | inactive: 2.21%
CCCOc1ccc(NP(C)(=O)Oc2ccc(Cl)cc2)cc1 (centres undefined) | inactive: 0.39%
O=C(O)c1cccc(Nc2c([N+](=O)[O-])cc([N+](=O)[O-])cc2[N+](=O)[O-])c1 | inactive: -0.19%
CC1=NCCc2c1[nH]c1ccccc21.O=[N+]([O-])c1cc([N+](=O)[O-])c(O)c([N+](=O)[O-])c1 | inactive: 1.44%
COc1ccccc1OP(C)(=O)Nc1cccc(Br)c1 (centres undefined) | inactive: -7.15%
Cc1cc(C)cc(OP(C)(=O)Nc2ccc(C)cc2C)c1 (centres undefined) | inactive: 1.63%
CCOC(=O)c1ccc(NP(C)(=O)Oc2cc(C)cc(C)c2)cc1 (centres undefined) | inactive: 0.05%
CP(=O)(Nc1cccc(Br)c1)Oc1ccccc1 (centres undefined) | inactive: -5.32%
Cc1cc(C)cc(OP(C)(=O)Nc2ccccn2)c1 (centres undefined) | inactive: 8.01%
Cc1ccc(C)c(NP(C)(=O)Oc2ccccc2)c1 (centres undefined) | inactive: 5.89%
CCN(CC)CCCOC(=O)C(O)(c1ccccc1)c1ccccc1 | inactive: -2.1%
O=[N+]([O-])c1cc([N+](=O)[O-])c(Nc2cccnc2)c([N+](=O)[O-])c1 | inactive: -11.6%
CC(C)(C)c1ccc(OP(C)(=O)Nc2ccc(SC(F)(F)F)cc2)cc1 (centres undefined) | inactive: -4.26%

SMILES | inhibition
Cc1cccc(C)c1OP(C)(N)=O (centres undefined) | inactive: -0.56%
O=[N+]([O-])c1ccc2c(c1)C=Nc1ccccc1O2 | inactive: 4.45%
CCOC(=O)c1ccc(NP(C)(=O)Oc2ccccc2)cc1 (centres undefined) | inactive: 2.58%
COc1ccccc1OP(C)(=O)Nc1ccc(C)cc1 (centres undefined) | inactive: -10.6%
Cc1ccc(NP(C)(=O)Oc2ccccc2)c(C)c1 (centres undefined) | inactive: -0.14%
COc1ccccc1OP(C)(=O)Nc1cc(Cl)ccc1C (centres undefined) | inactive: -6.73%
COc1ccc(OP(C)(=O)Nc2cccc(F)c2)cc1 (centres undefined) | inactive: 0.74%
Cc1cc(C)cc(OP(C)(N)=O)c1 (centres undefined) | inactive: -7.27%
CP(=S)(Nn1cnnc1)Oc1ccccc1 (centres undefined) | inactive: 4.19%
COc1ccccc1OP(C)(=O)Nc1ccccc1 (centres undefined) | inactive: -1.18%
CP(=O)(Nc1ccccc1Br)Oc1ccccc1 (centres undefined) | inactive: -3.73%
Cc1ccc(Nc2c([N+](=O)[O-])cc([N+](=O)[O-])cc2[N+](=O)[O-])cc1 | inactive: -0.89%
Cc1cccc(C)c1OP(C)(=O)Nc1ccc(SC(F)(F)F)cc1 (centres undefined) | inactive: -2.85%
CP(=O)(Oc1ccccc1)OC(c1ccccc1)C(F)(F)F (centres undefined) | inactive: 2.04%
CCc1ccc(OP(C)(=O)N2CCN(c3ccc([N+](=O)[O-])cc3)CC2)cc1 (centres undefined) | inactive: 8.34%
CP(=O)(NC(=O)Nc1ccccc1)Oc1ccccc1 (centres undefined) | inactive: 3.37%
Cc1cc(C)cc(OP(C)(=O)Nc2ccc(SC(F)(F)F)cc2)c1 (centres undefined) | inactive: 5.37%
CCOP(C)(=S)SCC(=O)NC(C)C(=O)O (centres undefined) | inactive: 5.61%
CCOC(=O)c1ccc(NP(C)(=O)Oc2ccc(OC)cc2)cc1 (centres undefined) | inactive: 1.02%
CP(=O)(Nc1ccccn1)Oc1ccc(Cl)cc1 (centres undefined) | inactive: 9.21%
